From patent publication US20220340633A1 (Adepthera LLC, priority 2016, published 2022)

Chains of the proteins cited; added tags and fusions are not shown. Residues count along the entry.
UniProt O60895, 43-175: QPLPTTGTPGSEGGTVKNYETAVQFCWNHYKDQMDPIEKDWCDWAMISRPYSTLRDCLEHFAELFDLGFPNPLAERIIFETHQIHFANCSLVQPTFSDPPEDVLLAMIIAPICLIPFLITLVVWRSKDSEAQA
UniProt Q16602, 23-461: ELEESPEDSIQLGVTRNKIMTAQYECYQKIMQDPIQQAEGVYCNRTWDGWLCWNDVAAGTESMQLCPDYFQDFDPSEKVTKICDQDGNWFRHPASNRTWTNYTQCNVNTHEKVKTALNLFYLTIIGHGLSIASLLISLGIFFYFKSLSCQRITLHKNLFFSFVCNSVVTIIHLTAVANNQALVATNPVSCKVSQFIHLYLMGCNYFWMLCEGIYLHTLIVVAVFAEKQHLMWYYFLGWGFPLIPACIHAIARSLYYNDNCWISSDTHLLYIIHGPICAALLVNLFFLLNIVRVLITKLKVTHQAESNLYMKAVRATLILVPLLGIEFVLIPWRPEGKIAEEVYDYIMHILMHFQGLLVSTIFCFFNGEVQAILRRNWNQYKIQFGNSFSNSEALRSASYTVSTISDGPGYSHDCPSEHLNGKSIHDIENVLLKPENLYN
UniProt O60894, 27-148: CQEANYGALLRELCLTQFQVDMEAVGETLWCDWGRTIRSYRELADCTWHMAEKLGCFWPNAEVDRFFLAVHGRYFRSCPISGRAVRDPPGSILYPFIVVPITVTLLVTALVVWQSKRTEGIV

Assays:
CLR/RAMP2 receptor = CLR/RAMP2 receptor (Homo sapiens, UniProt O60895+Q16602); experiment: CLR/RAMP2 arrestin receptor activation assay (agonist); assay type: cell-based; design: host or cells: CHO-K1 cells; settings: CHO-K1 cells stably expressing CLR/RAMP2, positive control ADM, read-out: CLR/RAMP 2 EC50
CLR/RAMP1 receptor = CLR/RAMP1 receptor (Homo sapiens, UniProt O60894+Q16602); experiment: CLR/RAMP1 cAMP receptor activation assay (agonist); assay type: cell-based; design: host or cells: 1321N1 cells; settings: 1321N1 cells stably expressing CLR/RAMP1, positive control β-CGRP, read-out: CLR/RAMP 1 EC50

SMILES | EC50 (CLR/RAMP2 receptor) [nM] | EC50 (CLR/RAMP1 receptor) [nM]
CCCCCCCCCCCCCCCC(=O)NCCCC[C@H](NC(=O)COCCOCCN)C(=O)NCC(=O)N[C@H]1CSSC[C@@H](C(=O)N[C@H](C(=O)N[C@H](C(=O)N[C@@H](CCC(N)=O)C(=O)N[C@@H](CCCCN)C(=O)N[C@@H](CC(C)C)C(=O)N[C@@H](C)C(=O)N[C@@H](Cc2c[nH]cn2)C(=O)N[C@@H](CCC(N)=O)C(=O)N[C@H](C(=O)N[C@@H](Cc2ccc(O)cc2)C(=O)N[C@@H](CCC(N)=O)C(=O)N[C@@H](Cc2ccccc2)C(=O)N[C@H](C(=O)N[C@@H](CC(=O)O)C(=O)N[C@@H](CCCCN)C(=O)N[C@@H](CC(=O)O)C(=O)N[C@@H](CCCCN)C(=O)N[C@@H](CC(=O)O)C(=O)N[C@@H](CO)C(=O)N[C@@H](C)C(=O)N2CCC[C@H]2C(=O)N[C@H](C(=O)N[C@@H](CC(=O)O)C(=O)N2CCC[C@H]2C(=O)N[C@@H](CO)C(=O)N[C@@H](CO)C(=O)N2CCC[C@H]2C(=O)N[C@@H](Cc2c[nH]cn2)C(=O)N[C@@H](CO)C(=O)N[C@@H](Cc2ccc(O)cc2)C(N)=O)C(C)C)[C@@H](C)O)[C@@H](C)CC)C(C)C)[C@@H](C)O)NC(=O)[C@H]([C@@H](C)O)NC(=O)CNC(=O)[C@H](Cc2ccccc2)NC(=O)[C@H](CCCNC(=N)N)NC1=O [SEQ ID NO: 46] | 0.5 | 
CCCCCCCCCCCCCCCC(=O)NCCCC[C@H](NC(=O)COCCOCCN)C(=O)NCC(=O)N[C@H]1CSSC[C@@H](C(=O)N[C@H](C(=O)N[C@H](C(=O)N[C@@H](CCC(N)=O)C(=O)N[C@@H](CCCCN)C(=O)N[C@@H](CC(C)C)C(=O)N[C@@H](C)C(=O)N[C@@H](Cc2c[nH]cn2)C(=O)N[C@@H](CCC(N)=O)C(=O)N[C@H](C(=O)N[C@@H](Cc2ccc(O)cc2)C(=O)N[C@@H](CCC(N)=O)C(=O)N[C@@H](Cc2ccccc2)C(=O)N[C@H](C(=O)N[C@@H](CC(=O)O)C(=O)N[C@@H](CCCCN)C(=O)N[C@@H](CC(=O)O)C(=O)N[C@@H](CCCCN)C(=O)N[C@@H](CC(=O)O)C(=O)N[C@@H](CC(N)=O)C(=O)N[C@H](C(=O)N[C@@H](CC(=O)O)C(=O)N2CCC[C@H]2C(=O)N[C@@H](CO)C(=O)N[C@@H](CO)C(=O)N2CCC[C@H]2C(=O)N[C@@H](Cc2c[nH]cn2)C(=O)N[C@@H](CO)C(=O)N[C@@H](Cc2ccc(O)cc2)C(N)=O)C(C)C)[C@@H](C)O)[C@@H](C)CC)C(C)C)[C@@H](C)O)NC(=O)[C@H]([C@@H](C)O)NC(=O)CNC(=O)[C@H](Cc2ccccc2)NC(=O)[C@H](CCCNC(=N)N)NC1=O [SEQ ID NO: 94] | 1.3 | 11
